# scFv variants of Ab-91 (heavy chain) against a SARS-CoV-2 spike peptide

The target is the same throughout: PDVDLGDISGINAS, from the HR2 region of SARS-CoV-2 spike.

Each scFv is VL, a 15-residue (Gly4Ser)3 linker, VH, as in the parent Ab-91, and differs from it in the CDRs of the heavy chain only.
VL: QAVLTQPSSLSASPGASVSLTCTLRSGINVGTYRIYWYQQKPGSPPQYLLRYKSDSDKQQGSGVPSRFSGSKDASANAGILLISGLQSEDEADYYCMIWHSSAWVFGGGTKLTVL
VH: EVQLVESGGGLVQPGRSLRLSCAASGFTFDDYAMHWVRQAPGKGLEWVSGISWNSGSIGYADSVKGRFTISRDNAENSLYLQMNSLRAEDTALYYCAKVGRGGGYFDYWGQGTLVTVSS

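The parent was found by panning a naive human phage display library on the peptide. Variants in AAYL51 differ from the parent at up to three CDR positions; double and triple changes were sampled at random. The scFvs were displayed on barcoded MATa yeast, the peptide on MATalpha yeast. The frequency of each diploid, read from paired DNA barcodes, reflects how well the two displayed proteins bind. The ratio of observed to expected reads was calibrated, replicate by replicate, on BCL2-family standards whose Kd was known from biolayer interferometry. There are three technical replicates.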

Substitutions are numbered in sequence along the VH above, starting at 1 (not Kabat).
Every variant below is changed at D62 of the VH (sequential numbering).
Values are log10 of the apparent Kd in nM; lower means stronger binding.
Replicates are averaged; those with no signal do not enter the mean.
A pair that was not seen in that replicate is written "nd"; this usually means weak binding, but a binder can also be missed.
Three control strains display no target. For library AAYL51, 21% of the pairings with them gave a signal, with a median of 4.54 and one signal in twenty below 3.26, so weak values seen in few replicates may be background.

For G26P+Y32G+D62G, the assay gave 4.16, nd, nd.
For Y60S+D62M+F106S, the assay gave nd, nd, nd.
For S52Y+D62I, the assay gave nd, nd, nd.
For W53S+S55L+D62K, the assay gave 4.23, 4.96, nd (mean 4.60).
For M34I+A61W+D62M, the assay gave nd, 5.77, 4.95 (mean 5.36).
For D31A+Y60D+D62F, the assay gave nd, nd, nd.
For N54R+D62P+G100H, the assay gave nd, nd, nd.
For N54V+D62N+K65S, the assay gave 5.05, 7.05, 4.54 (mean 5.55).
For D62R, the assay gave nd, nd, 3.58.
For T28Q+G50Y+D62K, the assay gave nd, 5.84, nd.
For S55Q+D62Q+Y108R, the assay gave 1.84, 1.80, 1.05 (mean 1.56).
For W53I+D62A+S63Q, the assay gave 5.68, 3.60, nd (mean 4.64).
For H35E+G50N+D62F, the assay gave nd, nd, nd.
For I58V+D62V+G102C, the assay gave 1.52, 1.64, 1.37 (mean 1.51).
For N54D+D62M, the assay gave 1.92, 1.30, 1.62 (mean 1.61).
For Y32L+D62F+V64A, the assay gave 2.91, nd, nd.
For I58S+D62T+F106W, the assay gave 5.16, nd, nd.
For D62F+V64G+G104H, the assay gave nd, nd, nd.
For Y60K+A61C+D62H, the assay gave 4.29, nd, nd.
For M34W+A61G+D62A, the assay gave nd, nd, nd.
For I51A+I58C+D62S, the assay gave nd, nd, nd.
For D62R+K65L, the assay gave 2.78, 2.32, 2.34 (mean 2.48).
For M34C+H35V+D62A, the assay gave nd, nd, nd.
For G50P+W53A+D62S, the assay gave 4.75, 4.50, nd (mean 4.62).
For T28S+D62S+D107Q, the assay gave 5.15, nd, nd.
For M34Q+D62G+K65Y, the assay gave nd, nd, nd.
For T28H+D62W, the assay gave 2.20, 2.42, 2.11 (mean 2.24).
For W53S+D62A+Y105E, the assay gave nd, nd, nd.
For G50E+D62L, the assay gave nd, nd, nd.
For I51V+D62T+G102W, the assay gave nd, 4.92, nd.
For G26A+H35V+D62M, the assay gave nd, 3.94, nd.
For S55G+Y60W+D62C, the assay gave 4.70, nd, nd.
For D62Y+D107N+Y108W, the assay gave nd, nd, nd.
For A33Y+A61D+D62K, the assay gave nd, nd, 2.37.
For Y60R+D62A+R101K, the assay gave nd, nd, 5.34.
For G26H+D62L+G100F, the assay gave nd, nd, nd.
For G59V+D62N+V64N, the assay gave nd, nd, 3.99.
For A61E+D62Y, the assay gave nd, nd, nd.
For G50N+D62H+S63L, the assay gave nd, nd, nd.

Excerpt, the first 6 entries:

G26P+Y32G+D62G: 4.16, nd, nd.
Y60S+D62M+F106S: nd, nd, nd.
S52Y+D62I: nd, nd, nd.
W53S+S55L+D62K: 4.23, 4.96, nd (mean 4.60).
M34I+A61W+D62M: nd, 5.77, 4.95 (mean 5.36).
D31A+Y60D+D62F: nd, nd, nd.

Reference: Engelhart et al. 2022, doi:10.1038/s41597-022-01779-4. File: FLAb, binding data.